Reference: patent publication US4921850A, “3-propenylcephem derivative” (Eisai Co., Ltd., priority 1986, dated 1990)

Test: in vivo
Details: intravenous, physiological saline solution, five ICR male 6 weeks-old mouse, read-out: values of acute toxicity
Source text: (1) Acute toxicity in mouse:
The compounds according to this invention dissolved in a physiological saline solution were intravenously dosed to five ICR male 6 weeks-old mouse.

CC[N+](C)(C/C=C/C1=C(C(=O)[O-])N2C(=O)[C@@H](NC(=O)/C(=N\OCF)c3nsc(N)n3)[C@H]2SC1)CC(N)=O (stereo partly drawn) [Example 1, 7β-[2-(5-Amino-1,2,4-thiadiazol-3-yl)-(Z)-2-fluoromethoxyiminoacetamido]-3-[(E)-3-(carbamoylmethylethylmethylammonio)-1-propen-1-yl]-3-cephem-4-carboxylate]
LD50: > 2000 mg/kg
